The source of these data is publication PMC5548887 (Nature Communications, 2017).

This experiment addresses T1, Ubiquitin (the Ub chain of the UbcH7-Ub conjugate in the crystal structure) (UniProt P0CG48, in part, C-terminal Gly76 isopeptide-linked to K86 of UbcH7).
T1 construct: ubiquitin (Ub), C-terminal glycine Gly76; The same chain as the second chain of m2, written alone for the pairs that touch in the structure; source: in the structure as part of the UbcH7-Ub conjugate
Put plainly: crystal structure; HHARI/UbcH7-Ub complex, 3.5 Å, space group P6(5)22, one complex per asymmetric unit; crystals at 18 °C in 100 mM sodium cacodylate pH 6.17, 350 mM sodium acetate, 10% glycerol. To be noted: both partners purified.

B1: HHARI full-length (residues 1-557) (enzyme, UniProt Q9Y4X5 1-557, looked up)
chain: MDSDEGYNYEFDEDEECSEEDSGAEEEEDEDDDEPDDDTLDLGEVELVEPGLGVGGERDGLLCGETGGGGGSALGPGGGGGGGGGGGGGGPGHEQEEDYRYEVLTAEQILQHMVECIREVNEVIQNPATITRILLSHFNWDKEKLMERYFDGNLEKLFAECHVINPSKKSRTRQMNTRSSAQDMPCQICYLNYPNSYFTGLECGHKFCMQCWSEYLTTKIMEEGMGQTISCPAHGCDILVDDNTVMRLITDSKVKLKYQHLITNSFVECNRLLKWCPAPDCHHVVKVQYPDAKPVRCKCGRQFCFNCGENWHDPVKCKWLKKWIKKCDDDSETSNWIAANTKECPKCHVTIEKDGGCNHMVCRNQNCKAEFCWVCLGPWEPHGSAWYNCNRYNEDDAKAARDAQERSRAALQRYLFYCNRYMNHMQSLRFEHKLYAQVKQKMEEMQQHNMSWIEVQFLKKAVDVLCQCRATLMYTYVFAFYLKKNNQSIIFENNQADLENATEVLSGYLERDISQDSLQDIKQKVQDKYRYCESRRRVLLQHVHEGYEKDLWEYIED
notes: HHARI (ARIH1), residues 1-557 (full-length); 6xHis-SMT3 tag removed with ULP1; ZnCl2 added before induction; also called ARIH1; HHARI^E2-Ub; source: E. coli BL21 (DE3) Codon Plus, purified (Ni-NTA, Superdex 200, MonoQ); not shown: His6, N-terminal, cleaved; SMT3, N-terminal, cleaved
For the molecule B1, the binding result is “binds”.
